Data as given in article PMC11986510, “Duplexed CeTEAM drug biosensors reveal determinants of PARP inhibitor selectivity in cells” (The Journal of Biological Chemistry, 2025).

Protein sequences, listed by entry. Tags and fused reporters are not part of them. Chains listed by the source or under a name are the forms on record and can include a tag or linker.
UniProt Q9UGN5, other isoform, or with tags, fused parts or gaps L269A: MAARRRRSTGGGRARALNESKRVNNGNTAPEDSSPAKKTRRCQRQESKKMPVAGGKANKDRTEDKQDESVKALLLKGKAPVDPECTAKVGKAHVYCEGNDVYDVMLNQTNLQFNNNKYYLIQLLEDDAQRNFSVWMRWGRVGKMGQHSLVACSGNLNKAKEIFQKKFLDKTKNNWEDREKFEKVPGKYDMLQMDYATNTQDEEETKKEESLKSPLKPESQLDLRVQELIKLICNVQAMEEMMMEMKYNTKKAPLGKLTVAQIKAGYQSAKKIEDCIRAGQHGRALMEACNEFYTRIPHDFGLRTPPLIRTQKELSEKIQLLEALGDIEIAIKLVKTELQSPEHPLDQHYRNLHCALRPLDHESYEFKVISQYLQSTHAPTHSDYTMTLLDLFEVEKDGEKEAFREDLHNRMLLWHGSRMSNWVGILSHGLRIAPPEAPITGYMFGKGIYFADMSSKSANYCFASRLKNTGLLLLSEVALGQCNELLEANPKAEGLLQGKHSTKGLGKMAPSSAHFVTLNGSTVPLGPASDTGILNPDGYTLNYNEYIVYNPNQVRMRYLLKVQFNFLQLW

Biological target: PARP2 L269A-mCherry (Homo sapiens, UniProt Q9UGN5, L282A)
Format: cell-based
Details: CeTEAM stabilization, live U-2 OS dual biosensor cells, 24 h PARPi gradient, n = 3

`CN(C)CC(=O)Nc1ccc2[nH]c(=O)c3ccccc3c2c1` [PJ34] showed an EC50 of 1470 nM.
